Yeast mating assay B: variants of the scFv Ab-14

Data: MIT Lincoln Laboratory AlphaSeq set, Li et al. 2023, doi:10.1038/s41467-023-39022-2, as distributed in FLAb.

Binding partner: SARS-CoV-2 spike HR2 peptide, sequence PDVDLGDISGINAS.

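Phage display of a naive human antibody library on the peptide gave the parent. The variants were designed computationally from a first round of random CDR variants and then made and measured. Their group label is 14H_GP_Gibbs (GP: Gaussian process model; Gibbs: Gibbs sampling; a sequence that several methods proposed may carry one label only). AlphaSeq pools MATa yeast showing the antibodies with MATalpha yeast showing the peptide. After mating in shaken culture at 30 °C for 16 h, diploids were selected and their barcode pairs sequenced. Scores were corrected for input abundance and mapped to Kd with protein pairs of known affinity run in the same pool. The assay was run in six technical replicates.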

The variants keep the light chain, the linker and the frameworks of Ab-14 (scFv order VH, the linker GGGGSGGGGSGGGGS, VL).
VH: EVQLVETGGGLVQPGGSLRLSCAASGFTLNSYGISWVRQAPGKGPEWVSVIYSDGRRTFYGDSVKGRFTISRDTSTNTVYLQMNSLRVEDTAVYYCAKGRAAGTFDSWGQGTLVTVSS
VL: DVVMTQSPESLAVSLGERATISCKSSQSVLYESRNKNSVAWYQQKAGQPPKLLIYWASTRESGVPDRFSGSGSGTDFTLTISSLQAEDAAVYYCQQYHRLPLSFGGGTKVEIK

Changes read parent residue, position, new residue, counted from the first residue of the VH shown.
Values are log10 of the apparent Kd in nM; lower means stronger binding.
Where no diploid with the target was found in that replicate, the entry reads "ND": below detection, most likely a poor binder, though not proof of it.
Nonspecific signal, from three strains lacking the peptide, appeared in 1% of pairings of all heavy chain designs, centred on 2.08 (5% of these signals below 0.84); values are not corrected for it. The control count says in how many pairings with the empty strains this scFv gave a signal, with their mean in brackets.

changes	replicates, log10 nM	control signals
T28Q+S63Q+A101T+S107T	1.56 1.50 1.10 1.39 1.39 1.24	0/18
T28E+S31E+G61S+R100N	0.77 0.21 0.84 1.70 0.09 0.93	1/18 (1.48)
T28E+S53A+R100N+S107D	0.53 -0.11 0.22 -0.23 0.05 0.13	0/18
T28S+S31D+R100Q+S107L	0.60 0.97 0.61 1.18 0.74 0.45	0/18
T28S+R100Q+A101L+S107T	0.34 0.23 0.27 0.20 -0.01 0.67	1/18 (2.57)
T28D+S63K+A101T+S107T	0.06 0.35 -0.21 -0.23 -0.44 0.11	0/18
T28W+S31E+R56H+G61H+A101T	0.56 ND 1.81 0.81 1.09 0.85	0/18
F27E+T28D+G61A+A101N	1.26 0.81 0.72 1.29 1.22 1.22	0/18
T28S+S31E+R56I+A101T+S107T	0.04 -0.27 -0.32 0.06 -0.43 -0.09	0/18
T28N+S63A+R100Q+A101E	0.49 0.16 0.14 -0.03 0.15 0.30	1/18 (2.64)
G26M+T28D+S31T+F59A	0.79 0.95 0.60 0.67 0.75 0.30	0/18
T28E+S31N+A101H+S107T	0.69 0.93 1.14 0.64 1.07 1.33	0/18
T28D+G61I+S63T+R100N	0.32 0.39 0.67 0.67 0.48 1.43	1/18 (1.97)
T28Q+S63Q+A101T+S107Q	0.19 0.11 0.55 0.43 0.60 0.62	0/18
G26H+T28D+G61H+R100Q+A101T	ND ND ND ND ND ND	0/18
T28E+S53A+A101T+S107K	0.50 -0.16 -0.48 -0.69 0.09 -0.37	0/18
T28Q+S31E+G61V+A101H	1.50 2.65 0.77 1.16 2.29 2.20	0/18
R56Q+A101V+S107K	0.95 0.55 ND 0.16 0.49 0.08	0/18
T28S+S31E+S63D+R100E+S107K	ND 2.67 ND ND 0.62 0.72	0/18
S63A+R100E+S107T	0.60 1.23 0.59 0.99 0.57 1.06	0/18
G26S+T28S+G61A+R100S+A101E	0.88 ND ND 1.73 ND ND	0/18
T28E+S63N+R100M+A101T	0.24 0.01 0.16 1.58 0.06 -0.08	1/18 (2.58)
T28E+R100W+A101V+S107L	ND 0.63 0.14 ND 1.88 ND	0/18
T28N+G61I+S63M+R100Q	ND ND ND ND 0.34 ND	0/18
R56Q+G61A+S63D+R100Q+S107L	1.38 0.36 0.23 -0.12 0.66 0.92	0/18
T28E+S53A+D106C	ND ND ND ND ND 1.66	1/18 (1.64)
T28D+R56K+R100K+A101T+S107V	0.10 -0.21 -0.21 -0.19 -0.28 0.07	0/18
T28G+S31D+G61H	1.78 1.82 0.80 1.59 0.42 1.08	0/18
T28E+S63R+R100Q+A101T	0.40 1.57 1.04 0.90 0.70 0.42	1/18 (2.05)
R56K+S63R+R100E+S107T	ND ND ND ND ND ND	0/18
R56L+G61I+R100K	1.20 1.09 ND ND ND 2.53	0/18
N30D+S53A+S63R+S107L	0.15 0.30 0.01 0.10 0.03 0.63	0/18
T28E+S53A+S63R+R100Q+S107V	0.28 0.08 -0.05 -0.01 0.04 0.22	2/18 (2.77)
G26Y+F27K+T28S+F59A	ND ND ND ND ND ND	0/18

Values of this round are not directly comparable with the first-round values of the same sequences.
In the paper, a design with two or fewer of six values counts as a poor binder.